Data reported in patent US10513538B2, “Dipeptidyl peptidase-IV (DPPIV), inhibitory peptide compound, composition containing the same, and production method for the same” (MARUHA NICHIRO CORPORATION, priority 2013, dated 2019).

The chains behind the UniProt entries cited, without tags or fusion partners.
UniProt P27487, whole entry: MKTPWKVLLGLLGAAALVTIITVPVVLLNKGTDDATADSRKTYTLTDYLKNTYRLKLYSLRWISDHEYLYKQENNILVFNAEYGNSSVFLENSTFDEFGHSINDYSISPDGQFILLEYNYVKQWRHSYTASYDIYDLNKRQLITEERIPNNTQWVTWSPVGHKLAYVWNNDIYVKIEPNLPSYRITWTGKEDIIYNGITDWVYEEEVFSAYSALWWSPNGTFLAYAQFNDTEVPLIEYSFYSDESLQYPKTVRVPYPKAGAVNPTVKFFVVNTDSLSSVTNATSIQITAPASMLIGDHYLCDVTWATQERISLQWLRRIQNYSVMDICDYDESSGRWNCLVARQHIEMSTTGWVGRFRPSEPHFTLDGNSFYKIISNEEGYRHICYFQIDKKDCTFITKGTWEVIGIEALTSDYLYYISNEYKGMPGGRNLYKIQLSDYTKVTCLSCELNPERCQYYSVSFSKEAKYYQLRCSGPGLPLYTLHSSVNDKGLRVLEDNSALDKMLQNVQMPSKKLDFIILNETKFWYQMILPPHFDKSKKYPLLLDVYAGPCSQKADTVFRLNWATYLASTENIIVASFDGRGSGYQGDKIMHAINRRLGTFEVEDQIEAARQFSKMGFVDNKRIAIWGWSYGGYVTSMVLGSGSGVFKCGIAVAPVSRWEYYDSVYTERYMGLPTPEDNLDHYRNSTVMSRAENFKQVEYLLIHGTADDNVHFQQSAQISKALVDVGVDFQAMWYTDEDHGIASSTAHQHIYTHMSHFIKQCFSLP

Biological target: T1, DPPIV (Human, recombinant) (Homo sapiens, UniProt P27487)
T1 construct: purchased Biomol (DPPIV Drug Discovery Assay Kit, Enzo Life Sciences, Inc.)
Experiment: DPPIV inhibitory activity measurement with partly modified DPPIV Drug Discovery Assay Kit (AMC substrate)
Type: biochemical
Conditions: for Activity Contribution Ratio (%): contribution of the peptide to the DPPIV inhibitory activity of the salmon milt peptide composition, from content, peptide IC50 and composition IC50; for IC50: synthesized peptide, serially diluted

Compound | Activity Contribution Ratio (%) | IC50 [µM]
CC[C@H](C)[C@H](N)C(=O)N1CCC[C@H]1C(=O)N[C@@H](CC(C)C)C(=O)O [IPL, Ile-Pro-Leu] | 0.4 | 26
CC[C@H](C)[C@H](N)C(=O)N1CCC[C@H]1C(=O)N[C@H](C(=O)O)[C@@H](C)CC [IPI, Ile-Pro-Ile] | 2.5 | 3
CC(C)C[C@H](NC(=O)[C@@H]1CCCN1C(=O)[C@@H](N)C(C)C)C(=O)O [VPL, Val-Pro-Leu] | 2.0 | 19
CC[C@H](C)[C@H](NC(=O)[C@@H]1CCCN1C(=O)[C@@H](N)C(C)C)C(=O)O [VPI, Val-Pro-Ile] | 5.1 | 3
CC[C@H](C)[C@H](NC(=O)[C@@H](N)C(C)C)C(=O)N1CCC[C@H]1C(=O)O [VIP, Val-Ile-Pro] | – | > 100
CC(C)C[C@H](N)C(=O)N1CCC[C@H]1C(=O)N[C@@H](Cc1ccccc1)C(=O)O [LPF, Leu-Pro-Phe] | 0.2 | 88
CC(C)C[C@H](NC(=O)[C@@H]1CCCN1C(=O)[C@@H](N)CC(C)C)C(=O)O [LPL, Leu-Pro-Leu] | 0.1 | 82
